From patent US10023539B2, “Aryl-cyanoguanidine compounds” (Bayer Pharma Aktiengesellschaft, priority 2014, dated 2018)

The chains behind the UniProt entries cited, without tags or fusion partners. Where a name states a change or a piece, a line headed by the entry shows the natural chain unless it says otherwise.
UniProt Q9NRG4: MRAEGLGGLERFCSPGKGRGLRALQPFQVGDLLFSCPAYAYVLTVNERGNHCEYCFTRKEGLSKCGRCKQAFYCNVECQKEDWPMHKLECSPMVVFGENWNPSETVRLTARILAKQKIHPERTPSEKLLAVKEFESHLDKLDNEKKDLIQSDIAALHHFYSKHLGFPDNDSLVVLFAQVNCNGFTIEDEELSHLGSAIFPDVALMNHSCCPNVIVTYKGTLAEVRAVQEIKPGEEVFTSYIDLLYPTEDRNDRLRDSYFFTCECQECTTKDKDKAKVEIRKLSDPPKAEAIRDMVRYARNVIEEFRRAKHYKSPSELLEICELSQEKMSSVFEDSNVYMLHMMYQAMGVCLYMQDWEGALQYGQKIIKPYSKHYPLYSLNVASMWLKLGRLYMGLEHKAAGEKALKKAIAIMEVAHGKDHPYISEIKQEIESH

Molecular target: SMYD2 (Homo sapiens (Human), UniProt Q9NRG4)
Assay: Scintillation Proximity Assay (SPA) for detection of SMYD2 enzymatic inhibition
Format: biochemical
Conditions: comparison example versus WO 2006/072350; read-out: IC50 [mol/l] (SPA Assay)
Experimental: 1.1 Scintillation Proximity Assay (SPA) for Detection of SMYD2 Enzymatic Inhibition
The SMYD2 full length enzyme was produced in-house by expression (with an N-terminal 6×His tag) in E. coli and purification by affinity chromatography on a Ni-NTA Sepharose column followed by a size exclusion chromatography step on a Superdex 200 16/60 column (GE Healthcare).
To this end, 100-fold concentrated compound solutions (in DMSO) were previously prepared by serial dilution (1:3.4) of 2 mM stocks in a clear low volume 384-well source microtiter plate (Greiner Bio-One), from which 50 nl of compound solutions were transferred into a white low volume test microtiter plate from the same supplier. […] The samples were then incubated for 15 min at 22° C. to allow pre-equilibration of the putative enzyme-inhibitor complexes before the start of the methylation reaction, which was initiated by the addition of 2.5 μl 2-fold concentrated solution (in assay buffer) of titrated S-Adenosyl-L-Methionine (3H-SAM, Perkin Elmer, final concentration: 60 nM) and p53 Peptide substrate (final concentration: 1.0 μM). The resulting mixture (5 μl final volume) was shortly centrifuged (2 min., 1500 rpm) and incubated at 22° C. during 30 min. Thereupon the reaction was stopped by adding 3 μl of Streptavidin PS SPA imaging beads (Perkin Elmer, final concentration of 3.12 μg/μl) and “cold” SAM (AK Scientific, 25 μM final concentration) for non-specific binding reduction. Plates containing the stopped reaction were sealed with transparent adhesive foil (Perkin Elmer), centrifuged (2 min., 1500 rpm), and further incubated for—at least—1 h at RT (or overnight at 4° C.) in order to allow the SPA signals to develop. […] IC50 values were calculated by fitting the normalized inhibition data to a 4-parameter logistic equation using the “Screener” analysis software from Genedata.

`CCN(C(=O)CO)C1CN(/C(=N\C#N)Nc2cccc(OC(F)F)c2)N=C1c1ccc(Cl)c(Cl)c1` (single isomer, unassigned) [Example 4.1, N-[1-{N′-cyano-N-[3-(difluoromethoxy)phenyl]carbamimidoyl}-3-(3,4-dichlorophenyl)-4,5-dihydro-1H-pyrazol-4-yl]-N-ethyl-2-hydroxyacetamide] was tested, and the IC50 was 28.2 nM.

Same assay, conditions: methylation of biotinylated p53 Peptide, 3H-SAM, full length SMYD2; read-out: IC50 [mol/l] (SPA Assay)

`CCN(C(=O)CCN)C1CN(/C(=N\C#N)Nc2cccc(OC(F)F)c2)N=C1c1ccc(Cl)c(Cl)c1` (racemic) [Example 6, Rac-N-[1-{N′-cyano-N-[3-(difluoromethoxy)phenyl]carbamimidoyl}-3-(3,4-dichlorophenyl)-4,5-dihydro-1H-pyrazol-4-yl]-N-ethyl-beta-alaninamide] and `CCN(C(=O)CCCN)C1CN(/C(=N\C#N)Nc2cccc(OC(F)F)c2)N=C1c1ccc(Cl)c(Cl)c1` (single isomer, unassigned) [Example 10.1, 4-amino-N-[1-{N′-cyano-N-[3-(difluoromethoxy)phenyl]carbamimidoyl}-3-(3,4-dichlorophenyl)-4,5-dihydro-1H-pyrazol-4-yl]-N-ethylbutanamide] are within 1.5-fold of each other in IC50: 286 nM for the first, 199 nM for the second.

Compared with `CCN(C(=O)CO)C1CN(/C(=N\C#N)Nc2cccc(OC)c2)N=C1c1ccc(Cl)c(Cl)c1` (racemic) [Example 15, Rac-N-{1-[N′-cyano-N-(3-methoxyphenyl)carbamimidoyl]-3-(3,4-dichlorophenyl)-4,5-dihydro-1H-pyrazol-4-yl}-N-ethyl-2-hydroxyacetamide], `CCN(C(=O)CO)C1CN(/C(=N\C#N)Nc2cccc(OC(F)F)c2)N=C1c1ccc(Cl)c(Cl)c1` (single isomer, unassigned) [Example 4.1, N-[1-{N′-cyano-N-[3-(difluoromethoxy)phenyl]carbamimidoyl}-3-(3,4-dichlorophenyl)-4,5-dihydro-1H-pyrazol-4-yl]-N-ethyl-2-hydroxyacetamide] is 4.3-fold lower in IC50: 121 nM for the first, 28.2 nM for the second. The second is the more potent here.

Compared with `CCN(C(=O)CO)C1CN(/C(=N\C#N)Nc2cccc(OCCN(C)C)c2)N=C1c1ccc(Cl)c(Cl)c1` (racemic) [Example 16, Rac-N-[1-(N′-cyano-N-{3-[2-(dimethylamino)ethoxy]phenyl}carbamimidoyl)-3-(3,4-dichlorophenyl)-4,5-dihydro-1H-pyrazol-4-yl]-N-ethyl-2-hydroxyacetamide], `CCN(C(=O)CO)C1CN(/C(=N\C#N)Nc2cccc(OC)c2)N=C1c1ccc(Cl)c(Cl)c1` (single isomer, unassigned) [Example 15.1, N-{1-[N′-cyano-N-(3-methoxyphenyl)carbamimidoyl]-3-(3,4-dichlorophenyl)-4,5-dihydro-1H-pyrazol-4-yl}-N-ethyl-2-hydroxyacetamide] is 49-fold higher in IC50: 358 nM for the first, 17600 nM for the second.

First: CCN(C(=O)CO)C1CN(/C(=N\C#N)Nc2cccc(CC(F)(F)F)c2)N=C1c1ccc(Cl)c(Cl)c1 (racemic) [Example 21, Rac-N-[1-{N′-cyano-N-[3-(2,2,2-trifluoroethyl)phenyl]carbamimidoyl}-3-(3,4-dichlorophenyl)-4,5-dihydro-1H-pyrazol-4-yl]-N-ethyl-2-hydroxyacetamide]
Second: CCN(C(=O)CO)C1CN(/C(=N\C#N)Nc2cccc(OC(F)(F)F)c2)N=C1c1ccc(Cl)c(Cl)c1 (single isomer, unassigned) [Example 13.1, N-[1-{N′-cyano-N-[3-(trifluoromethoxy)phenyl]carbamimidoyl}-3-(3,4-dichlorophenyl)-4,5-dihydro-1H-pyrazol-4-yl]-N-ethyl-2-hydroxyacetamide]
The IC50 of the first is 4.3-fold lower: 1070 nM for the first, 4610 nM for the second.

Going from `CCN(C(=O)CO)C1CN(/C(=N\C#N)Nc2cc(F)cc(OC(F)(F)F)c2)N=C1c1ccc(Cl)c(Cl)c1` (racemic) [Example 25, Rac-N-[1-{N′-cyano-N-[3-fluoro-5-(trifluoromethoxy)phenyl]carbamimidoyl}-3-(3,4-dichlorophenyl)-4,5-dihydro-1H-pyrazol-4-yl]-N-ethyl-2-hydroxyacetamide] to `CCN(C(=O)CO)C1CN(/C(=N\C#N)Nc2cccc(OC(F)(F)F)c2)N=C1c1ccc(Cl)c(Cl)c1` (single isomer, unassigned) [Example 13.2, N-[1-{N′-cyano-N-[3-(trifluoromethoxy)phenyl]carbamimidoyl}-3-(3,4-dichlorophenyl)-4,5-dihydro-1H-pyrazol-4-yl]-N-ethyl-2-hydroxyacetamide], the IC50 falls from 108 nM to 50 nM (2.2-fold).

First: CCN(C(=O)CO)C1CN(/C(=N\C#N)Nc2cccc(OC(F)F)c2)N=C1c1ccc(Cl)c(C)c1 (racemic) [Example 33, Rac-N-[3-(4-chloro-3-methylphenyl)-1-{N′-cyano-N-[3-(difluoromethoxy)phenyl]-carbamimidoyl}-4,5-dihydro-1H-pyrazol-4-yl]-N-ethyl-2-hydroxyacetamide]
Second: CCN(C(=O)CCCN)C1CN(/C(=N\C#N)Nc2cccc(OC(F)F)c2)N=C1c1ccc(Cl)c(Cl)c1 (single isomer, unassigned) [Example 10.2, 4-amino-N-[1-{N′-cyano-N-[3-(difluoromethoxy)phenyl]carbamimidoyl}-3-(3,4-dichlorophenyl)-4,5-dihydro-1H-pyrazol-4-yl]-N-ethylbutanamide]
The IC50 of the first is 45-fold lower: 84.5 nM for the first, 3830 nM for the second.

`CC(C)(O)C(=O)NC1CN(/C(=N\C#N)Nc2cccc(OC(F)F)c2)N=C1c1ccc(Cl)c(Cl)c1` (single isomer, unassigned) [Example 5.1, N-[1-{N′-cyano-N-[3-(difluoromethoxy)phenyl]carbamimidoyl}-3-(3,4-dichlorophenyl)-4,5-dihydro-1H-pyrazol-4-yl]-2-hydroxy-2-methylpropanamide] and `CCN(C(=O)CO)C1CN(/C(=N\C#N)Nc2cc(OC(F)F)ccc2OC)N=C1c1ccc(Cl)c(Cl)c1` (single isomer, unassigned) [Example 18.1, N-[1-{N′-cyano-N-[5-(difluoromethoxy)-2-methoxyphenyl]carbamimidoyl}-3-(3,4-dichlorophenyl)-4,5-dihydro-1H-pyrazol-4-yl]-N-ethyl-2-hydroxyacetamide] cannot be ordered by IC50: greater than 20000 nM for the first, greater than 20000 nM for the second.

Going from `CCN(C(=O)CO)C1CN(/C(=N\C#N)Nc2cccc(OCCN(C)C)c2)N=C1c1ccc(Cl)c(Cl)c1` (single isomer, unassigned) [Example 16.1, N-[1-(N′-cyano-N-{3-[2-(dimethylamino)ethoxy]phenyl}carbamimidoyl)-3-(3,4-dichlorophenyl)-4,5-dihydro-1H-pyrazol-4-yl]-N-ethyl-2-hydroxyacetamide] to `CCN(C(=O)CO)C1CN(/C(=N\C#N)Nc2cccc(CC(F)(F)F)c2)N=C1c1ccc(Cl)c(Cl)c1` (single isomer, unassigned) [Example 21.1, N-[1-{N′-cyano-N-[3-(2,2,2-trifluoroethyl)phenyl]carbamimidoyl}-3-(3,4-dichlorophenyl)-4,5-dihydro-1H-pyrazol-4-yl]-N-ethyl-2-hydroxyacetamide], the IC50 falls from 4790 nM to 53 nM (90-fold).

`CCN(C(=O)CO)C1CN(/C(=N\C#N)Nc2cccc(OC(F)F)n2)N=C1c1ccc(Cl)c(Cl)c1` (single isomer, unassigned) [Example 20.1, N-[1-{N′-cyano-N-[6-(difluoromethoxy)pyridin-2-yl]carbamimidoyl}-3-(3,4-dichlorophenyl)-4,5-dihydro-1H-pyrazol-4-yl]-N-ethyl-2-hydroxyacetamide] was tested, and the IC50 was 17400 nM.
For `CCN(C(=O)CO)C1CN(/C(=N\C#N)Nc2cccc(OC(F)F)n2)N=C1c1ccc(Cl)c(Cl)c1` (single isomer, unassigned) [Example 20.2, N-[1-{N′-cyano-N-[6-(difluoromethoxy)pyridin-2-yl]carbamimidoyl}-3-(3,4-dichlorophenyl)-4,5-dihydro-1H-pyrazol-4-yl]-N-ethyl-2-hydroxyacetamide], the IC50 was 119 nM.
